These results are taken from ChEMBL document CHEMBL1122932, “Metabolism of phencyclidine. The role of the carbinolamine intermediate in the formation of lactam and amino acid metabolites of nitrogen heterocycles” (J Med Chem, 1985).

Common to all, as to format: ADME
Series [1] is filed under the species Mus musculus. Put plainly: In vitro level of metabolite in mice liver microsomes at 1 hour. An outline of the steps: (§1)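 12500g liver supernatant from 10 male ICR mice (homogenized in ice-cold pH 7.4 Tris with 0.15 M KCl; stored -70 °C, used within 15 h). Incubated with phencyclidine and NADP/glucose 6-phosphate/nicotinamide/MgSO4 cofactor at 37 °C, 120 osc/min, 100% O2. Metabolites measured by GLC (N-benzylphenylalanine internal standard, nitrogen detector) or HPLC (ketamine internal standard), calibrated by spiking microsomal blanks.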

Series [2] is filed under the species Mus musculus. Put plainly: In vitro level of metabolite in mice liver microsomes at 2 hours. The method in brief: as §1
Background: Microsomes from liver hold many membrane-bound enzymes, among them those of drug oxidation.

Series [3] is filed under the species Mus musculus. Put plainly: In vitro level of metabolite in mice liver microsomes at 3 hours. The method in brief:
as §1

Turning to `O[C@H]1CC[C@](c2ccccc2)(N2CCCCC2)CC1`, the Metabolite levels in the series filed under Mus musculus [1] stood at 3.1 µg; in the series filed under Mus musculus [2], 3.6 µg; in the series listed under Mus musculus [3], 5.1 µg.
In the same order, the values of `O[C@H]1CC[C@@](c2ccccc2)(N2CCCCC2)CC1` are 6.7 µg, 7.7 µg and 8 µg.
